The text below walks through data of patent US5508437A, “Analogs of tyrosine sulfate or tyrosine phosphate containing peptides” (Hoffmann-La Roche Inc., priority 1993, dated 1996).

Amino acid sequences for entries named in this document (tags omitted).
UniProt P30551, whole entry: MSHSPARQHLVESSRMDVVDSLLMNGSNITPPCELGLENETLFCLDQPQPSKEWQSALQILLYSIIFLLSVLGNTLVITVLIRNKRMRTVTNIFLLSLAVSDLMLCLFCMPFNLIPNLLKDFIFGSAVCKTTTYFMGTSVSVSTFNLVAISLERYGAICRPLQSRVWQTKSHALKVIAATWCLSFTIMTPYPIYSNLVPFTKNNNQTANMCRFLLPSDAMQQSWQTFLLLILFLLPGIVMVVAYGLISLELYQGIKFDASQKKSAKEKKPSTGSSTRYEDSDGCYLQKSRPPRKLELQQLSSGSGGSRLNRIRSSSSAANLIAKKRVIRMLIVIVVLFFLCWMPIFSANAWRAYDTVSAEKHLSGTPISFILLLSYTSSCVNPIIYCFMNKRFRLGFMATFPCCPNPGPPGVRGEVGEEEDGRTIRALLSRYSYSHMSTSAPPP

pIC50: −log10 of the molar value.

The target in the experiment is T1, rat pancreas (3H-CCK-8-(SO3 H) receptor binding) (Rattus norvegicus, UniProt P30551).
T1 construct: pancreas approximately 0.100 mg protein in 1 mL final volume; from tissue; host or cells: rat pancreas membrane homogenate
In words: In vitro receptor binding assay, 3H-CCK-8-(SO3H), rat pancreas homogenate. Conditions: 3H-CCK-8-(SO3H) 0.15 nM, 30 min at 25° C., read-out: Rate Pancreas IC50 (concentration to inhibit 50% of specific 3H-CCK-8-(SO3H) binding). As for the experimental part:
Frozen bovine striatum (approx. 5 g) or fresh rat pancreas (approx. 5 g) cleaned of fat and extraneous tissue were homogenized in HEPES buffer #1 (10 mM HEPES+130 mM NaCl+5 mM MgCl2, pH 7.4) using 35 parts buffer per 1 part tissue on a wet weight/volume basis (approx. 175 mL). The tissue was homogenized 2×for approx. 15 sec. at 0° C. using a Polytron homogenizer at a setting of 6. The tissue was isolated by centrifugation at 48,000× g for 10 min at 0° C. The resulting tissue pellet was resuspended in HEPES buffer #2 (10 mM HEPES+130 mM NaCl+5 mM MgCl2 +1 mg/L phenylmethanasulfonyl fluoride (PMSF)+200 mg/L Bacitracin): 1 part striatal tissue (original wet weight) per 80 parts buffer and 1 part pancreas tissue (original wet weight) per 500 to 1000 parts buffer.
Incubation was initiated by combining various concentrations of native CCK-8 or peptides of the invention with ^3 H-CCK-8-(SO3 H) (final conc.=0.15 nM) and tissue homogenate (striatum approximately 0.26 mg protein in 2 mL final volume; pancreas approximately 0.100 mg protein in 1 mL final volume). […] The vials were shaken overnight and then counted using a liquid scintillation spectrometer. Non-specific binding was determined in the presence of 1 micromolar native CCK-8 and subtracted from all samples to determine specific binding. […]

On to `CSCC[C@H](NC(=O)[C@H](Cc1ccc(CCC(=O)O)cc1)NC(C)=O)C(=O)NCC(=O)N[C@@H](Cc1c[nH]c2ccccc12)C(=O)N[C@@H](CCSC)C(=O)N[C@@H](CC(=O)O)C(=O)N[C@@H](Cc1ccccc1)C(N)=O` [Example 51, AC-Phe(4-CH2 CH2 COOH)-Met-Gly-Trp-Met-Asp-Phe-NH2], for which the pIC50 was 6.41.
